Laboratory results as given in PubChem BioAssay AID504414 (Broad Institute, 2011).
The entries are a selection whose mix differs from that of the whole data set. Some of these compounds have results that are not shown, active ones among them. Active and inactive are the calls of the source.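 How the source made its calls: active means highest replicate inhibition of at least 40%; inactive means the rest.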

Target: Golgi-associated PDZ and coiled-coil motif-containing protein (Homo sapiens) (UniProt Q9HD26)
Test: CAL PDZ peptide-binding inhibitors, primary screen, biochemical, fluorescence polarization, Cer-tagged CAL PDZ, HTS (AID 504414);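 further: plate controls were DMSO neutral control wells for no effect and unlabeled competitor peptide control wells for full effect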
Details: purified CAL PDZ, TMR-peptide fluorescence polarization, 1 h; at 20 µM; stronger effect = higher value

Row | SMILES | inhibition
1 | O=C(NCC1(N2CCCCC2)CCCCC1)c1cccc(Br)c1 | inactive: -2.32%
2 | Cc1cc(C(=O)NCC2(N3CCCCC3)CCCCC2)ccc1[N+](=O)[O-] | inactive: -0.885%
3 | CCN1CCCC(OC(=O)C2(O)c3ccccc3C=Cc3ccccc32)C1 (stereo not given) | inactive: 0.349%
4 | COc1ccc(C(=O)NCC2(N(C)C)CCCCC2)cc1 | inactive: 0.867%
5 | O=C(NCC1(N2CCCCC2)CCCCC1)c1cc(F)c(F)cc1Cl | inactive: -1.56%
6 | C=CCN1CCN(CCOC(=O)C(O)(c2ccccc2)c2ccccc2)CC1 | inactive: -1.03%
7 | CN(C)C1CCCC1OC(=O)C(O)(c1ccccc1)c1ccccc1 (stereo not given) | inactive: -3.09%
8 | CN(C)c1ccc(C(=O)NCC2(N(C)C)CCCCC2)cc1 | inactive: -0.472%
9 | Cc1ccccc1C(=O)NCC1(N2CCCCC2)CCCCC1 | inactive: -2.66%
10 | Cc1ccc(C(=O)NCC2(N3CCCCC3)CCCCC2)cc1 | inactive: 0.267%
11 | CC(C)N1C(=O)CC2(CCN(CCOC(=O)C(O)(c3ccccc3)c3ccccc3)CC2)C1=O | inactive: -0.0605%
12 | COc1cc(SC)ccc1C(=O)NCC1(N(C)C)CCCCC1 | inactive: -1.11%
13 | CCN(CC)CC(C)C(C)OC(=O)C(O)(c1ccccc1)c1ccccc1 (stereo not given) | inactive: -1.38%
14 | CN1[C@@H]2CC[C@H]1CC(OC(=O)C(O)(c1ccccc1)c1ccccc1)C2 (stereo not given in full) | inactive: -0.282%
15 | O=C(NCC1(N2CCCCC2)CCCCC1)c1cc([N+](=O)[O-])ccc1Cl | inactive: -2.32%
16 | CN(C)c1cccc(C(=O)NCC2(N(C)C)CCCCC2)c1 | inactive: 1.26%
17 | O=C(OCCN1CCCC1)C(O)(c1ccccc1)c1ccccc1 | inactive: -0.558%
18 | CC(C)Oc1ccc(C(=O)NCC2(N(C)C)CCCCC2)cc1 | inactive: -1.04%
19 | COc1ccc(Br)c(C(=O)NCC2(N3CCCCC3)CCCCC2)c1 | inactive: -1.76%
20 | O=C(OC1CN2CCC1CC2)C(CO)(c1ccccc1)c1ccccc1 (stereo not given) | inactive: 0.0245%
21 | O=C(NCC1(N2CCCCC2)CCCCC1)c1cccc(Cl)c1 | inactive: 0.24%
22 | COc1ccc(Cl)cc1C(=O)NCC1(N(C)C)CCCCC1 | inactive: -0.0776%
23 | COc1cccc(C(=O)NCC2(N3CCCCC3)CCCCC2)c1 | inactive: 12.5%
24 | COc1cc(C(=O)NCC2(N(C)C)CCCCC2)c([N+](=O)[O-])cc1OC | inactive: -1.89%
25 | CN(C)C1(CNC(=O)c2ccc(Br)cc2)CCCCC1 | inactive: -1.12%
